# Test results from PubChem BioAssay AID2520 (Sanford-Burnham Center for Chemical Genomics, 2010).
# Amino acid sequences for entries named in this document (tags omitted). A change or cut given only in a name is not applied to a line headed by its entry.
# UniProt P35414: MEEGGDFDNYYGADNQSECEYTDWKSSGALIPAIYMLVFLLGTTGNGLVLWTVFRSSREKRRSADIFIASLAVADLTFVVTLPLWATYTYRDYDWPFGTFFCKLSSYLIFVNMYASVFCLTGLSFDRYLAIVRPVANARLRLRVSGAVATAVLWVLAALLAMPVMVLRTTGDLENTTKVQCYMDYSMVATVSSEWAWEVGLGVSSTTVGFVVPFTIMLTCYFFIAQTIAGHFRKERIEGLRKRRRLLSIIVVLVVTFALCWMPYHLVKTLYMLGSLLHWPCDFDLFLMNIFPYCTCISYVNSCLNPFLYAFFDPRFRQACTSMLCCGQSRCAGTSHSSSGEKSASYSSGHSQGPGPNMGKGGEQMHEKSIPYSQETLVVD
# Only a part is listed here, and it is no random draw. Calls of active or inactive are those of the source.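 The calls were made as follows: active = activation more than six SD over the plate average, tested at 20 µM; inactive = the rest.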
# Target: Apelin receptor (Homo sapiens) (UniProt P35414)
# Experiment: APJ activation via beta-arrestin recruitment – CHO-K1 cells, PathHunter beta-arrestin, luminescence, primary screen (AID 2520)
# Conditions: at 20 µM, stronger effect = higher value, 0% DMSO wells, 100% apelin
# Method in brief: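 Test system – PathHunter CHO-K1 APJ (AGTRL-1) beta-arrestin reporter cells · Input – 1000 cells/well · Compound – single test compound dose, 20 µM final, 1% DMSO · Times – compound stimulation 90 min at 25 °C, detection 60 min · Technique – beta-gal luminescence · Read-out basis – APJ–arrestin association signal · Control set – negative DMSO alone, positive Apelin-13 at 10 nM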
row,Compound,activation
1,CN(C(=O)Cc1ccc(Cl)c(Cl)c1)[C@H]1CCCC[C@H]1N1CCCC1,inactive: -0.837%
2,Cc1ccc(N/C(=N/P(=O)(N2CCOCC2)N2CCOCC2)N2CCOCC2)cc1,inactive: -2.45%
3,NC(=O)c1cc([N+](=O)[O-])cc([N+](=O)[O-])c1N,inactive: 1.54%
4,Clc1ccc(Cl)c(NC2=NCC(CBr)S2)c1 (stereo not drawn),inactive: -2.07%
5,CN1CCCC(OC(=O)C(c2ccccc2)c2ccccc2)C1 (stereo not drawn),inactive: -3.83%
6,COc1ccccc1OP(=O)(Nc1ccc(C)cn1)Oc1ccccc1OC,inactive: 2.02%
7,Cc1ccc(OP(=O)(Nc2nccs2)Oc2ccc(C)cc2)cc1,inactive: -3.75%
8,Oc1ccccc1CNc1ccccn1,inactive: 1.06%
9,Cc1c2non([O-])c-2c(C)[n+](=O)[n+]1[O-],inactive: 0.0599%
10,O=C(NC(Sc1ccncn1)C(Cl)(Cl)Cl)c1ccccc1 (stereo not drawn),inactive: -2.59%
11,CC(C)CC(=O)NC(Sc1ccc(Cl)cc1)C(Cl)(Cl)Cl (stereo not drawn),inactive: -0.853%
12,Nc1cc(N)c2nonc2c1[N+](=O)[O-],inactive: 2.25%
13,O=P(Nc1nc2ccc(Cl)cc2s1)(c1ccccc1)c1ccccc1,inactive: -4.57%
14,O=C(O)c1ccccc1[As](=O)(O)O,inactive: -3.74%
15,CC(=O)Nc1ccc([As](=O)(O)O)cc1,inactive: 0.24%
16,CCOP(=O)(Nc1ccccc1)OCC,inactive: 2.52%
17,Cc1cc(SC(NC(=O)c2ccc(F)cc2)C(Cl)(Cl)Cl)ncn1 (stereo not drawn),inactive: -4.3%
18,Cc1ccc(NP(=O)(Oc2ccccc2F)Oc2ccccc2F)nc1,inactive: -2.5%
19,CN(C(=O)Cc1ccc(Cl)c(Cl)c1)[C@H]1CCCC[C@@H]1N1CCCC1,inactive: -4.45%
20,O=[N+]([O-])c1cc([N+](=O)[O-])c(CCN2CCOCC2)c([N+](=O)[O-])c1,inactive: 2.06%
21,CCN(N=Nc1nonc1N)c1nonc1N,inactive: -4.06%
22,O=C(Nc1cc([As](=O)(O)O)ccc1O)c1ccccc1,inactive: -0.276%
23,O=[N+]([O-])c1ncn(CCn2ncnc2[N+](=O)[O-])n1,inactive: 0.905%
24,CC(C)(C)C(=O)NC(Sc1ccncn1)C(Cl)(Cl)Cl (stereo not drawn),inactive: -6.97%
25,O=[N+]([O-])c1cccc(NC2=NCC(CBr)S2)c1 (stereo not drawn),inactive: 0.57%

row,Compound,activation
1,COc1ccc(C2=NCC(CBr)S2)cc1 (stereo not drawn),inactive: 1.66%
2,Cc1ccc(NP(=O)(Oc2ccccc2)Oc2ccccc2)nc1,inactive: -0.663%
3,CCc1nc2c(n1)c1c(non1O)c1c2no[n+]1[O-],inactive: 6.22%
4,O=[N+]([O-])c1cc([N+](=O)[O-])c(CCNc2ccccc2)c([N+](=O)[O-])c1,inactive: -0.107%
5,O=[N+]([O-])c1cccc2n[nH]nc12,inactive: 1.89%
6,CC(=O)N1C2C3N(C(C)=O)C1C1N(C(C)=O)C(C(N1C(C)=O)N3C(C)=O)N2C(C)=O,inactive: -2.72%
7,CCN(/C(=N/P(=O)(N1CCOCC1)N1CCOCC1)N1CCOCC1)c1ccc(OC)cc1,inactive: -2%
8,Nc1ccc([As](=O)(O)c2ccc(N)cc2)cc1,inactive: -2.75%
9,C[N+]1=C2C=CC=CC=C2SC12C([N+](=O)[O-])=CC([N+](=O)[O-])=C[C-]2[N+](=O)[O-] (stereo not drawn),inactive: -7.22%
10,CC1CCN(C(=O)Oc2c(Cl)cc(Cl)c3cccnc23)CC1,inactive: -5.88%
11,CC(C)=N/N=C(\N)N[N+](=O)[O-],inactive: -1.8%
12,CN(C)C(=O)OCCc1n(C)cc[n+]1C,inactive: -0.799%
13,CC(C)C(=O)NC(Sc1ccccc1)C(Cl)(Cl)Cl (stereo not drawn),inactive: -1.65%
14,O=P(Nc1nccs1)(c1ccccc1)c1ccccc1,inactive: -4.03%
15,c1nnnn1CCn1cnnn1,inactive: -3.34%
16,O=P(Nc1ccccn1)(c1ccc(Br)cc1)c1ccc(Br)cc1,inactive: -4.41%
17,CN(C)C1(CNC(=O)c2ccc(Cl)c(S(N)(=O)=O)c2)CCCCC1,inactive: 0.363%
18,O=P(Nc1nc2ccccc2s1)(c1ccccc1)c1ccccc1,inactive: -3.72%
19,C[C@H]1OP(=O)(Oc2ccccc2)[C@H](O)[C@H](O)[C@H]1N=[N+]=[N-] (stereo partly drawn),inactive: 6.21%
20,O=[As](O)(c1ccccc1)c1ccc(O)cc1,inactive: -5.1%
21,O=[N+]([O-])c1ncn(CCn2cnc([N+](=O)[O-])n2)n1,inactive: -0.316%
22,O=C(OC1CN2CCC1CC2)c1cccc(Cl)c1 (stereo not drawn),inactive: -5.21%
23,Nc1ccc([As](=O)(O)c2ccc([N+](=O)[O-])cc2)cc1,inactive: 0.547%
24,C(Cc1nn[nH]n1)Cc1nn[nH]n1,inactive: 2.13%
25,c1ccc(-c2nn[nH]n2)c(-c2nn[nH]n2)c1,inactive: -1.56%

row,Compound,activation
1,CCOC(=O)NC(Sc1ccccc1)C(Cl)(Cl)Cl (stereo not drawn),inactive: -3.19%
2,Cc1ccc(NP(=O)(Oc2cccc(C)c2)Oc2cccc(C)c2)nc1,inactive: -5.83%
3,CCNC(=S)/N=C(\N)N[N+](=O)[O-],inactive: -2.86%
4,O=C(NC1CCS(=O)(=O)C1)NP(=S)(Oc1ccccc1)Oc1ccccc1 (stereo not drawn),inactive: 0.711%
5,O=C(OC1CN2CCC1CC2)c1ccccc1 (stereo not drawn),inactive: -4.09%
6,CCC(=O)N1C2C3N(C(=O)CC)C1C1N(C(=O)CC)C(C(N1C(=O)CC)N3C(=O)CC)N2C(=O)CC,inactive: 0.556%
7,COC(=O)c1cc2c(s1)N=C(c1ccccc1)N(C)P2(=O)N1CCOCC1 (stereo not drawn),inactive: -3.85%
8,Cc1ccc(OP(=O)(Nc2ccccn2)Oc2ccc(C)cc2)cc1,inactive: -1.66%
9,CC(=O)NC(SC(=S)N(CC(C)C)CC(C)C)C(Cl)(Cl)Cl (stereo not drawn),inactive: 1.88%
10,Cc1ccccc1OP(=O)(Nc1ccccn1)Oc1ccccc1C,inactive: -1.04%
11,CC(NC(=O)COC(=O)C(O)(c1ccccc1)c1ccccc1)c1ccccc1 (stereo not drawn),inactive: 0.0513%
12,CN(C)C(=O)Oc1noc2ccccc12,inactive: 3.2%
13,O=P1(Nc2nc3ccc(Cl)cc3s2)COc2ccccc2O1 (stereo not drawn),inactive: 2.52%
14,CCOc1ccc(C2=NCC(CBr)S2)cc1 (stereo not drawn),inactive: -2.7%
15,CC(C)(C)C(=O)NC(Sc1ccccc1)C(Cl)(Cl)Cl (stereo not drawn),inactive: -0.748%
16,Cc1ccccc1CN(C)C(=O)COC(=O)C(O)(c1ccccc1)c1ccccc1,inactive: -2.3%
17,C[C@@H]1C=CCP(=O)(Oc2ccccc2)O1 (stereo partly drawn),inactive: -5.08%
18,C[C@H]1OP(=O)(Oc2ccccc2)C[C@@H]2O[C@@H]21 (stereo partly drawn),inactive: -2.73%
19,CC(=O)c1ccc(N2CC2c2ccncc2)cc1 (stereo not drawn),inactive: -1.8%
20,CC(=O)Nc1ccc([As](=O)(O)O)c(O)c1,inactive: -0.5%
21,CC(=O)Nc1ccc(Oc2c([N+](=O)[O-])cc([N+](=O)[O-])cc2[N+](=O)[O-])cc1,inactive: -3.79%
22,O=C(OC1CN2CCC1CC2)c1ccc(Cl)cc1 (stereo not drawn),inactive: -0.952%
23,COc1cc(C(=O)NCC2(N3CCOCC3)CCCCC2)cc(Cl)c1OC(C)C,inactive: -0.465%
24,O=[As](O)(O)c1cccnc1,inactive: -1.54%
25,CS(=O)(=O)c1ccc(Cl)c(NC(=O)COC(=O)C(O)(c2ccccc2)c2ccccc2)c1,inactive: 3.39%

row,Compound,activation
1,O=[As](O)(c1cccc(O)c1)c1cccc(O)c1,inactive: -6.23%
2,Cc1cccc(OCC(=O)OC2CN3CCC2CC3)c1 (stereo not drawn),inactive: 1.16%
3,Cc1ccc(NCCc2c([N+](=O)[O-])cc([N+](=O)[O-])cc2[N+](=O)[O-])cc1,inactive: 5.06%
4,CCCOP(=S)(Nc1nc(N)cc(=O)[nH]1)OCCC,inactive: -1.14%
5,COc1cc(C2NCCC3(OCCO3)C2(C)C)cc(OC)c1OC (stereo not drawn),inactive: -1.82%
6,CCOP(=O)(Nc1cccc2ccccc12)OCC,inactive: -2.7%
7,CCOP1(=S)c2c(C)nn(CCC#N)c2N=C(c2ccccc2F)N1C (stereo not drawn),inactive: -4.54%
8,O=P(Nc1nccs1)(c1ccccc1)c1nc2ccccc2s1 (stereo not drawn),inactive: -3.01%
9,O=P(Nc1nccs1)(Oc1ccccc1)Oc1ccccc1,inactive: 1.98%
10,CS(=O)(=O)c1cc([N+](=O)[O-])c2no[n+]([O-])c2c1,inactive: 2.72%
11,Nc1ccccc1[As](=O)(O)c1ccccc1,inactive: 0.523%
12,O=C(O)COc1ccc([As](=O)(O)O)cc1[N+](=O)[O-],inactive: -1.66%
13,NC(=O)Nc1ccc([As](=O)(O)O)cc1,inactive: 7.53%
14,N#CCCN(C(=O)COC(=O)C(O)(c1ccccc1)c1ccccc1)c1ccc(F)cc1,inactive: -5.09%
15,CCOP1(=S)c2c(C)nn(CCC#N)c2N=C(c2ccc(F)cc2)N1C (stereo not drawn),inactive: -2.26%
16,CN(C(=O)Cc1ccccc1)[C@@H]1CC[C@]2(CCCO2)C[C@H]1N1CCCC1,inactive: 3.01%
17,CN(C)C(=O)c1cc([N+](=O)[O-])cc2c1-c1c(cc([N+](=O)[O-])cc1[N+](=O)[O-])C2=O,inactive: -0.287%
18,O=[N+]([O-])c1ccc2c(c1)nnn2O,inactive: -3.72%
19,CN(C(=O)Cc1ccc(Cl)c(Cl)c1)[C@H]1CC[C@@]2(CCCO2)C[C@@H]1N1CCCC1,inactive: 2.73%
20,Cc1nn(-c2ccccc2)c2c1P(=O)(N1CCOCC1)N(C)C(c1ccccc1)=N2 (stereo not drawn),inactive: -3.91%
21,CC1CCC(C(C)C)C(OP(=O)(Nc2ccccn2)c2ccccc2)C1 (stereo not drawn),inactive: -1.3%
22,Cc1ccc(C(=O)OC2CN3CCC2CC3)cc1 (stereo not drawn),inactive: -0.919%
23,CN(C)C1(CNC(=O)c2ccc(S(C)(=O)=O)cc2)CCCCC1,inactive: -6.25%
